Tested on: brain energy-rich compounds (ATP, ADP, AMP)
Assay: Acute hypoxia in rats; protection of tissue energy-rich compounds in brain (ATP, energy content)
Type: in vivo, Male Fischer 344 rats (Charles River)
Settings: 300 mg/kg I.P., 3% oxygen for 2 minutes
Description: The compounds of the present invention were tested in respect of their capacity to prolong the survival of cerebral tissue during acute hypoxia in mice, or to maintain the level of tissue energy-rich compounds in rats subjected to a fall in the oxygen supply [Pharmacology of Cerebral Ischemia, p. 334-339 (1968) Elsevier Science Publishers B.V., J. Krieglstein ed.]. […] Forsch. Drug. Res. (1986), 36 II No. 9, p. 1314-1320].
Whereas the control rats breath a gaseous mixture containing 21% of oxygen and 79% of nitrogen, the rats subjected to hypoxia breath a mixture of 3% oxygen and 97% nitrogen for 2 minutes.
At the end of the hypoxic period, the animals are rapidly sacrificed by total immersion in liquid nitrogen. The frozen brain is removed and the energy-rich compounds (ATP, ADP, AMP) are extracted and assayed by the luciferin luminescence method.
The tissue energy content (EC) is calculated according to ATKINSON's formula: [formula]

NC(=O)CN1CCCC1=O [Piracetam, piracetam, reference compound]
% inhibition of the effects of hypoxia, ATP: 3.9%
